Reference: US9284283B2, “Macrocyclic compounds for modulating IL-17” (ENSEMBLE THERAPEUTICS CORPORATION, priority 2012, dated 2016)

Chains of the proteins cited; added tags and fusions are not shown. Residues count along the entry.
UniProt Q16552, 20-155 limits assumed: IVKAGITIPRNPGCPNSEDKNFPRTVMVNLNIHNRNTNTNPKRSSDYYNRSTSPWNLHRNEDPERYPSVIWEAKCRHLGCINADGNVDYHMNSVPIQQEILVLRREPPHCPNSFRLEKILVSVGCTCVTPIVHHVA

Key:
[1] = target: recombinant human IL17a (binding to its receptor IL17R) (Homo sapiens, UniProt Q16552); test: IL-17 competition ELISA I (IL17a coated, IL17R/Fc binding); conditions: read-out: ELISA I
Method: ELISA I: The ability of the compounds to block binding of IL17a to its receptor, IL17R, was analyzed in a competition ELISA format. High binding 96-well plates (Costar #9018) were coated with 20 nM of recombinant human IL17a (R&D Systems #317-ILB) in PBS (0.64 μg/mL), 100 μL/well, for 30 min at 37′C followed by 5 min at 4′C. Plates were then washed in PBST (PBS/0.05% Tween-20) on a plate washer, (Biotech EL-450) blocked with protein-free blocking buffer (Thermo Scientific #37573) in 250 μL/well for 30 min on shaker at room temperature, and then washed again. Compound dilutions prepared in PBST were added into the wells in duplicates followed by the addition of IL17R/Fc (R&D Systems #177-IR) at a final concentration of 12 nM. Plates were then incubated for 30 min at room temperature on the shaker. Wells with no compound served as a positive “no competitor” control, while wells with no IL17R/Fc and no compound served as a blank negative control. After an additional PBST wash, 50 ng/mL HRP-conjugated goat anti-human Fc IgG (KPL #04-10-20) was added to the plate for 30 min at room temperature, followed by PBST wash and addition of SureBlue™ TMB (KPL #52-00-03). After the sufficient color development, the reaction was fixed by the addition of 100 μL/well 0.5 N HCl and absorbance was measured at 450 nm on Biotek plate reader.
(§1) Data were processed using BioAssay Enterprise v10.1.4 (CambridgeSoft) software. Linear OD λ450 were plotted against log concentration (x) and fitted to a 4-parameter logistic equation. IC50 was calculated using positive ‘no competitor’ control data as an upper limit and blank control as a lower limit in each assay.

[2] = target: biotinylated human IL-17 (binding to IL17R/Fc) (Homo sapiens, UniProt Q16552); test: IL-17 competition ELISA II (captured IL17R/Fc, biotinylated IL-17); conditions: read-out: ELISA II
Method: In this version, a high binding 96-well plate (Costar #9018) was coated with 20 nM of goat anti-human IgG (KPL 01-10-02) in PBS, 100 μL/well, for 30 min at 37° C. followed by 5 min at 4° C. The plate was then washed in PBST (PBS/0.05% Tween-20) on a plate washer, (BioTek ELx450) then blocked with protein-free blocking buffer (Thermo Scientific #37573) in 250 μL/well for 30 min on a shaker at room temperature, and then washed again. IL17R/Fc (R&D Systems #177-IR; 10 nM in PBST, 100 μL/well) was then added to all wells. The plate was then incubated for 30 minutes at room temperature on the shaker.
While the receptor capture step was underway, compound dilutions were prepared in PBST to a concentration of 1 μM in 1.5 mL tubes. After the receptor capture step, the plate was washed and 50 μL PBST was added to the wells in row B down to row H. Then, 62.5 μL of the 1 μM compound dilutions were added to the wells of row A. From row A, 12.5 μL of the compound solution was removed and added to row B with mixing and this process of 5-fold dilutions was continued, by row, to row G. One of the wells in row A received only PBST (62.5 μL) and this dilution series served as the no competitor control. Then, going up from row G to row A, 50 μL of b-IL-17 (biotinylated human IL-17, R&D Systems #317-ILB; 20 nM) was added to all wells. Row H received 50 μL of PBST and served as the blank row, i.e., no compound and no b-IL-17. The plate was then incubated for 30 minutes at room temperature on the shaker.
After the wash, 100 μL Streptavidin-Horseradish Peroxidase (SA-HRP) (KPL #14-30-00) at 25 ng/mL in PBST was added to each well in the plate and the plate incubated for 30 minutes at room temperature followed by wash and 100 μL SureBlue™ TMB (KPL #52-00-03). After sufficient color development (approx 3-6 minutes), the reaction was fixed by the addition of 100 μL/well 0.5 N HCl and absorbance was measured at 450 nm on a BioTek Synergy 2 plate reader. The absorbances of ‘no competitor’ control and blank control should not exceed 1.5 A.U. and 0.06 A.U., respectively.
as §1, with “Data was” for “Data were”

[3] = tested on: IL-17A induced secretion of IL-6 in primary human RASF cells; test: Inhibition of IL17A induced secretion of IL6 in human rheumatoid arthritis synovial fibroblast (RASF) cells; conditions: read-out: RASF
Method: This assay was used to determine the extent of inhibition of IL-17A induced secretion of IL-6 in primary human rheumatoid synovial fibroblast (RASF) cells by compounds of the invention. IL-17A is known to stimulate IL-6 production in RASF cells.
Low passage (passage 2-8) Primary human RASF cells (Asterand) were maintained in maintenance medium. Cells were detached from flasks by tryptic digestion and the cell density of the suspension determined. To each well of a 96 well culture plate was added 100 μL of seeding medium containing 50,000 cells/mL and the plate incubated overnight in a humidified 37° C., 5% CO2 incubator. The medium was replaced with fresh assay medium and cells were incubated for additional 5 hours in a humidified 37° C., 5% CO2 incubator prior to stimulation with recombinant human IL-17A (“rhIL-17A”). Prior to addition to cells, rhIL-17A (30 ng/mL) in assay medium was incubated with either DMSO alone, compounds, or anti-IL17 receptor antibody (3 μg/mL) for 1 hour at 37° C. The final concentration of DMSO in all samples was 0.25%. The final concentration of compounds varied from 0.03 μM to 25 μM.
Immediately before stimulation, cells were washed once with fresh assay medium. Then, 100 μL of the test samples was added in triplicate wells and the plates incubated for 20 hours in a humidified 37° C., 5% CO2 incubator. The assay medium from each well was collected and the IL-6 concentration in cell culture supernatants was determined by ELISA either immediately or after storage at −20° C.
A water-soluble tetrazolium salt (WST1) viability assay was immediately performed on the cells after the conditioned medium was collected using a WST1 reagent purchased from Roche. The concentration of IL-6 obtained from ELISA was normalized by the WST1 data.

[4] = tested on: DNFB-treated BALB/c mice; test: Murine model of delayed hypersensitivity (DNFB-induced ear edema); conditions: for Reduction in edema (%) / CXCL1 Reduction (%) / IFNγ Reduction (%) / IL6 Reduction (%): po; for Reduction in edema (%): ear weight 24 h after DNFB challenge; for CXCL1 Reduction (%) / IFNγ Reduction (%) / IL6 Reduction (%): plasma
Method: We used a murine model of fluorodinitrobenzene (DNFB)-induced ear edema to test the anti-inflammatory activity of both orally dosed and intraperitoneally dosed exemplary compounds of the invention. BALB/c mice (Harlan Sprague-Dawley, Inc., male, 6-8 weeks old) were topically treated on their shaved abdomen with 30 μL of 0.5% 1-fluoro-2,4-dinitrobenzene (DNFB) (4:1 acetone:olive oil) once on Day 0 and once on Day 1.
For oral dosing (“PO”), exemplary compounds of the invention were either suspended at 3 mg/mL in 20% Cremophor EL (Sigma) (20:80; Cremophor:water) or dissolved at 1 mg/mL or 3 mg/mL in D-α-tocopherol polyethylene glycol 1000 succinate (TPGS; Sigma)/PEG-400/water (20:60:20). For intraperitoneal dosing (“IP”), exemplary compounds of the invention were dissolved in DMSO at a concentration of 5 mg/mL. On day 7, the test compound was administered (PO at either 10 mg/kg or 30 mg/kg; IP at 1, 3, or 10 mg/kg) to DNFB-treated mice. Commercially available anti-mouse IL-17A (BioLegend) administered intraperitoneally at 5 mg/kg in PBS was used as a positive control. Thirty minutes later, 20 μL of 0.2% DNFB was applied to the right ear of animals and vehicle ([…]:olive oil) was applied to the left ear. One and four hours after DNFB challenge, a subset of mice was exsanguinated and plasma prepared from the blood. Twenty-four hours after challenge, the remaining mice were euthanized, and their ears were removed and weighed to determine the amount of edema. Plasma was assayed for interleukin-6, TNF-α, CXCL1, and interferon-γ concentrations using commercially-available assays.

[5] = tested on: murine collagen-induced arthritis; test: Mouse collagen-induced arthritis (CIA) model; conditions: orally 30 mg/kg in 20% Cremophor EL
Method: Exemplary compounds of the invention were evaluated in a murine CIA model. […] mice (10/group) were anaesthetized with Isoflurane, shaved at the base of the tail, and injected intradermally with 150 μL of Freund's Complete Adjuvant (Sigma) containing bovine type II collagen (Elastin Products, Owensville, Mo.) (2 mg/mL) at the base of the tail on day 0 and again on day 21. On study days 24-25, onset of arthritis occurred and mice were randomized into treatment groups. Randomization into each group was done after swelling was obviously established in at least one paw (score of 1), and attempts were made to ensure approximately equal mean scores of 0.25 across the groups at the time of enrollment. Once a day oral treatment with 10 or 30 mg/kg of test compound in 20% Cremophor EL was initiated after enrollment and continued once a day as indicated through arthritis day 10. Mice were terminated on day 11. Clinical scores were calculated for each of the paws (right front, left front, right rear, and left rear) on arthritis days 1-11 and the results were summarized as a reduction in clinical arthritis score for all paws over the time period of dosing.

## O=C1CNC(=O)[C@@H](Cc2ccc(NC(=O)[C@H](CC3CC3)NC(=O)Cc3ccccc3)cc2)NC(=O)CC2(CCCC2)CC(=O)NCCCCCN1
[1]
  IC50: 100 to 1000 nM
[2]
  IC50: < 100 nM

## O=C1CC2(CCCC2)CC(=O)N[C@H](Cc2ccc(NC(=O)[C@H](Cc3ccccc3Cl)NC(=O)Cc3cccc(O)c3)cc2)C(=O)NCCOCCOCCN1
[3]
  IC50: 100 to 1000 nM
[4]; administered orally in 20% Cremophor vehicle, FIG. 3
  decrease in IL-6, IFN-γ, CXCL-1, and edema: effective, dose-dependent decrease
[4]; oral 30 mg/kg vs anti-IL-17A antibody 5 mg/kg i.p.
  edema and biomarker suppression relative to anti-IL-17A antibody: equivalent to anti-IL-17A antibody
[4]; oral, FIG. 4 vs FIG. 3
  oral activity in TPGS-PEG400 oral formulation relative to Cremophor: improved the oral activity
[4]; orally 10 mg/kg in TPGS/PEG400/Water vehicle, FIG. 4
  IL-6, IFN-γ, CXCL-1, and edema as compared to water, 20% Cremophor vehicle or TPGS/PEG400/Water vehicle alone: decreased
[4]; 3 mg/kg
  Reduction in edema (%): 7.7%
  CXCL1 Reduction (%): −17.0%
  IFNγ Reduction (%): 29.2%
  IL6 Reduction (%): 9.3%
[4]; 10 mg/kg
  Reduction in edema (%): 36.7%
  CXCL1 Reduction (%): 31.0%
  IFNγ Reduction (%): 35.6%
  IL6 Reduction (%): 35.9%
[4]; 30 mg/kg
  Reduction in edema (%): 66.7%
  CXCL1 Reduction (%): 64.3%
  IFNγ Reduction (%): 67.7%
  IL6 Reduction (%): 66.5%
[5]; FIG. 6
  mean Clinical Arthritis Score over time as compared to the vehicle control: reduced
[5]; FIG. 7
  reduction of Clinical Arthritis Score, all paws: 11%
[5]; FIG. 8
  effect on histological parameters: little effect
[5]; FIG. 9
  overall effect on histological parameters: 5%
[2]
  IC50: < 100 nM

## NC(=O)CC[C@H]1NC(=O)[C@@H](Cc2ccc(NC(=O)[C@H](Cc3ccccc3Cl)NC(=O)Cc3ccc(CO)cc3)cc2)NC(=O)CC2(CCCC2)CC(=O)N[C@H](C(=O)O)CCCCNC1=O
[3]
  IC50: < 100 nM
[2]
  IC50: < 100 nM

## O=C1CNC(=O)[C@@H](Cc2ccc(NC(=O)[C@H](Cc3ccccc3Cl)NC(=O)Cc3ccccc3)cc2)NC(=O)CC2(CCCC2)CC(=O)OCCCCCN1
[3]
  IC50: > 10000 nM
[1]
  IC50: < 100 nM

## NC(=O)CC[C@H]1NC(=O)[C@@H](Cc2ccc(NC(=O)[C@H](Cc3ccccc3Cl)NC(=O)Cc3ccc(F)cc3)cc2)NC(=O)CC2(CCCC2)CC(=O)N[C@H](C(=O)O)CCCCNC1=O
[3]
  IC50: < 100 nM
[2]
  IC50: < 100 nM

## C[C@H]1NC(=O)[C@@H](Cc2ccc(NC(=O)[C@H](Cc3ccccc3Cl)NC(=O)Cc3ccc(F)cc3)cc2)NC(=O)CC2(CCCC2)CC(=O)NCCCCCNC1=O
[3]
  IC50: 100 to 1000 nM
[4]; 3 mg/kg
  Reduction in edema (%): 9.7%
  CXCL1 Reduction (%): 25.9%
  IFNγ Reduction (%): 9.3%
  IL6 Reduction (%): 6.5%
[4]; 10 mg/kg
  Reduction in edema (%): 23.1%
  CXCL1 Reduction (%): 44.6%
  IFNγ Reduction (%): 29.5%
  IL6 Reduction (%): 22.5%
[4]; 30 mg/kg
  Reduction in edema (%): 67.3%
  CXCL1 Reduction (%): 87.0%
  IFNγ Reduction (%): 82.9%
  IL6 Reduction (%): 70.8%
[2]
  IC50: < 100 nM

## C[C@H]1NC(=O)[C@@H](Cc2ccc(NC(=O)[C@H](Cc3ccccc3Cl)NC(=O)Cc3ccc(F)cc3)cc2)NC(=O)CCC2(CCCC2)C(=O)NCCCCCNC1=O
[2]
  IC50: < 100 nM
